# Data from patent publication US6060451.
# Biological target: bovine α-thrombin (bovine) (UniProt P00735)
substance,measurement,value
native desulfo hirudin^45-65 (from UniProt P01050) (peptide),"IC50, inhibition of fibrinogen clotting",940 nM
